Molecular target: Tyrosine-protein kinase JAK1 (Mus musculus, UniProt P52332)

Amino acid sequences for entries named in this document (tags omitted). A change or cut given only in a name is not applied to a line headed by its entry.
UniProt P52332: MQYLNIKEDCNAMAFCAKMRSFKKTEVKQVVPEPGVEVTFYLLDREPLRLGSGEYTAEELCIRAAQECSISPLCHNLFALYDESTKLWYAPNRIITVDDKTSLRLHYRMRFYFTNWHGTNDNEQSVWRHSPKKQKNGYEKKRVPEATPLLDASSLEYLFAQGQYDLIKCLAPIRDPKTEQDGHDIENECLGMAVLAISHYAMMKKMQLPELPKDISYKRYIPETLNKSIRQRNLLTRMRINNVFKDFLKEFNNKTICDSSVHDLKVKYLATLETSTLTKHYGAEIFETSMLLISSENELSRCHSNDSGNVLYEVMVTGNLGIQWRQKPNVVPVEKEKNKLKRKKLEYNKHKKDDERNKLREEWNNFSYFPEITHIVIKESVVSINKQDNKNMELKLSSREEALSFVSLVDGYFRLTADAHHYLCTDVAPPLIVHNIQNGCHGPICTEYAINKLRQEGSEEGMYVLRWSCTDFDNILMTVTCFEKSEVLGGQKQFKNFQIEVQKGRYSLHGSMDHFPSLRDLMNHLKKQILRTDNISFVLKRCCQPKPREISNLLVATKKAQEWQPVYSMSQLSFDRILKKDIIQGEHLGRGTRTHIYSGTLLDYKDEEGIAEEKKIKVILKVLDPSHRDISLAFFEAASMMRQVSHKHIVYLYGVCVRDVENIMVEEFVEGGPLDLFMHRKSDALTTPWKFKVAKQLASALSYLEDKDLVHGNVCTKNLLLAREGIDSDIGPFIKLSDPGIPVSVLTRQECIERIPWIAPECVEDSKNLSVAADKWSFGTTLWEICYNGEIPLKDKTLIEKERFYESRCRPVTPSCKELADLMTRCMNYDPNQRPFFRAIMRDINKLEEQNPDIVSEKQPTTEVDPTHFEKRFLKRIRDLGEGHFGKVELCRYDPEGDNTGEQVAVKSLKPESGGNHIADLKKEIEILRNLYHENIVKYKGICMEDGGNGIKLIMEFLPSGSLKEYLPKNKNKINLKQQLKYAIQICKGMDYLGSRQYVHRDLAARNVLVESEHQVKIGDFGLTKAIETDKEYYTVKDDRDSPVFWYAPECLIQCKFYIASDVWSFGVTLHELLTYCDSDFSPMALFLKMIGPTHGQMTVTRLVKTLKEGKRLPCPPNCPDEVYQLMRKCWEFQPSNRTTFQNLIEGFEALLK

CC[C@@H]1CN(C(=O)NCC(F)(F)F)C[C@@H]1c1cnc2cnc3[nH]ccc3n12 [UPADACITINIB]
IC50: 14 nM

— ChEMBL document CHEMBL5705907 (BMC Rheumatol, 2018)
